Measured values taken from ChEMBL document CHEMBL1121943, “Benzeneacetamide amines: structurally novel non-m mu opioids” (1982).
Calls of active or inactive are those of the source. The rule behind the calls is not given here.

Species: Mus musculus
Test: Tested for effective dose required to produce narcotic stimulation in mice; not active

Q: For `CN(C(=O)Cc1ccc(Cl)c(Cl)c1)C1CCCCC1N1CCCC1` (stereo unspecified), which ED50 is on record?
A: inactive
